The first test addresses T1, Opioid receptors; mu & kappa (Homo sapiens) (UniProt P41145+P35372). Description: Ratio of Ki at mu-opioid receptor to Ki at kappa oioid receptor. The note with it: Cavia porcellus.
For the compound `CN(C(=O)COc1cc(Cl)c(Cl)c(Cl)c1)[C@@H]1CCCC[C@H]1N1CCCCCCC1`, the Ratio is 280.

The next test deals with T1, Opioid receptors; mu & kappa (Homo sapiens). Description: Ratio of Ki at mu-opioid receptor to Ki at kappa opioid receptor. The following applies: Cavia porcellus.
On to `CN(C(=O)COc1cc(Cl)c(Cl)c(Cl)c1)[C@@H]1CCCC[C@H]1N1CCCC1`, for which the Ratio turned out to be 12.
Still for that read-out and setting: in the case of `CN(C(=O)COc1c(Cl)cccc1Cl)[C@@H]1CCCC[C@H]1N1CCCC1` it was 1.9; in that of `Cc1cc(OCC(=O)N(C)[C@@H]2CCCC[C@H]2N2CCCCCC2)cc(C)c1Cl`, 120; in that of `CN(C(=O)COc1ccc(Cl)c(Cl)c1)[C@@H]1CCCC[C@H]1N1CCCC1`, 18.
For `CN(C(=O)COc1cc(Cl)c(Cl)c(Cl)c1Cl)[C@@H]1CCCC[C@H]1N1CCCCCC1`, the Ratio is 110.
On the same count and under the same terms, the same measure for `CN(C(=O)COc1cc(Cl)cc(Cl)c1)[C@@H]1CCCC[C@H]1N1CCCCCC1`: 110; for `CN(C(=O)COc1cc(Cl)c(Cl)c(Cl)c1Cl)[C@@H]1CCCC[C@H]1N1CCCCCCC1`: 640.
On the same count and under the same terms, in the case of `CN(C(=O)COc1ccc(Cl)cc1)[C@@H]1CCCC[C@H]1N1CCCC1` it was 6.7.
